Here are results for 2 substances from US20210179940A1, “WIDE TEMPERATURE RANGE AND HIGH PHOTOCHEMICAL STABILITY SMECTIC LIQUID CRYSTAL COMPOSITIONS WITH A MONOLAYER SMECTIC A PHASE (SMA1), METHOD OF OBTAINING THEREOF AND DEVICES UTILIZING THEREOF” (WOJSKOWA AKADEMIA TECHNICZNA, priority 2017, published 2021).

The data set is described as follows: solubility of ionic compounds in fluorobenzene. Conditions: 25° C. The procedure:
Fluorobenzene was used as solvent because it is chemically similar to the liquid crystalline composition used here.
The examination was made in the following way: always the same mole amount of a ionic compound (0.00004 mol) was placed in 2 cm^3 of fluorobenzene. The mixture was mixed to dissolve the compound or to obtain equilibrium between the saturated solution and the solid. When a part of the compound was dissolved only, the sample of the saturated solution was taken (0.5 ml). The solvent was evaporated to dryness, the rest was weighted. Knowing the residue amount, the solubility was calculated.

Consider “complex of 18-crown-6 ether with potassium bromide [IIIb]”, for which the “solubility in C6H5F” value was 0.0104 mol/dcm^3.

Consider “complex of dibenzo-18-crown-6 ether with potassium bromide [IVb]”, for which the “solubility in C6H5F” value is on record as 0.0042 mol/dcm^3.
